Source: publication PMC4612324

Target: Aβ 1-40 peptide (UniProt P05067)
Experiment: ELISA; Aβ1-40 peptide coated on Maxisorp plates (0.1 µg/ml, bicarbonate buffer pH 9.6); antibodies serially diluted in PBS/1 % BSA, 1 h at room temperature; detected with biotinylated anti-mouse IgG and streptavidin poly-HRP; relative affinity

In the case of “3D6 (murine parent antibody of Bapineuzumab), recombinant with mouse IgG2a constant region (antibody; other documents disagree on this pair)”, the EC50 is reported as 0.17 pM.
